UUG fidelity – alters start codon recognition fidelity in yeast | S. cerevisiae UUG-firefly luciferase reporter, luminescence/redox ratio | activity score, % at 18.7 µM | hit rate 0.13% among 350,000 | AID 602363;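 active means replicate mean at a twofold rise or more, about +100% in these data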;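 further: firefly luciferase made from a UUG start codon reports start codon fidelity; reporter light over untreated wells divided by growth signal over untreated wells; some hits fall short of that in this replicate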
esBAF inh – Bmi1 luciferase reporter increase in mESCs, primary screen, esBAF inhibitor project, mouse ES cells, Bmi1 luciferase knock-in, single point | 24 h; 100% = twice the neutral-well signal | reporter increase, % at 12.5 µM | actives 2% (n = 350,000) | AID 602393, 2012; in the data active = activation above about 40%; inconclusive = no clear call, values can overlap the other calls;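 also: 0% = median of the plate's neutral control wells and 100% = double that signal; a rise in the Bmi1 reporter signal indicates esBAF inhibition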
E-sel inducer – E-selectin induction in HUVECs, primary screen, imaging, HUVEC, immunofluorescence imaging, single point | actives 0.37% (n = 260,000) | AID 686992, 2013 | P16581 | normalized: neutral wells 0, TNF-alpha wells 100 | activation, % at 7.58 µM;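 active = mean E-selectin-positive cell signal at least 10% of the positive control, reached in at least 60% of replicates, without over 20% cell loss; inconclusive = no rule given, readout overlaps actives, possibly toxicity-flagged; inactive = the rest, including those meeting only one limit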
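Read-out basis: % PE-positive cells; Test system: HUVEC primary endothelial cells; Technique: immunofluorescence imaging; Dosing: single-point compound dose.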
PglD DTNB – C. jejuni PglD acetyltransferase inhibitors, primary screen, biochemical, DTNB colorimetric, single point; purified PglD enzyme, DTNB colorimetric CoA detection; inhibition, % at 12.5 µM; actives 0.098% (n = 360,000); in the data active = inhibition above about 16%, passing the limit was not always enough; inconclusive = no clear call, values can overlap the other calls
PGC1a acetyl inh – inhibitors of PGC1a acetylation signal, primary screen, cell-based, U2OS, AlphaScreen, inhibitor mode; AlphaScreen anti-acetyl-lysine; with virally co-expressed GCN5 acetyltransferase; inhibition, % at 15.6 µM; actives 0.17% (n = 350,000); AID 651687, 2012;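 active = every replicate shows inhibition of at least 40%; inconclusive = mean inhibition at least 40% but some replicate below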;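 also: 0% = neutral control wells and 100% = positive control wells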
Statin myotox sup – suppressors of statin myotoxicity in C2C12 myotubes, primary screen, cell-based, single point, plate reader; C2C12 myotubes + simvastatin, ATP luminescence, 48 h; scaled: DMSO 0, geranylgeraniol control 100; rescue of ATP level, % at 7.49 µM; actives 0.78% (n = 330,000); AID 602340, 2012;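 active = mean ATP rescue above about 67%, or every replicate alone reaching that limit, limit read from the data, passing the limit was not always enough; inconclusive = no clear call, values can overlap the other calls; inactive = mean under the limit and some replicate under it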;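 also: myotubes were challenged with 10 µM simvastatin during compound exposure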
Numbers without * were called inactive. Sampled rows, rich in hits. Any-hit rate of the full collection: about 2.8%.

`CCCC#Cc1ccc2c(c1)O[C@@H](CN(C)C(C)=O)[C@@H](C)CN([C@H](C)CO)S2(=O)=O` gave UUG fidelity 11, esBAF inh -3, E-sel inducer 0, PglD DTNB -2, PGC1a acetyl inh -2 and Statin myotox sup 7.
For CCCC#Cc1ccc2c(c1)O[C@@H](CN(C)S(=O)(=O)c1cccc(OC)c1)[C@@H](C)CN([C@@H](C)CO)S2(=O)=O the results were UUG fidelity -9, esBAF inh 7, E-sel inducer 98*, PglD DTNB -3, PGC1a acetyl inh -15 and Statin myotox sup -29.
`CC(C)CC#Cc1ccc2c(c1)O[C@@H](CN(C)Cc1ccncc1)[C@@H](C)CN([C@H](C)CO)S2(=O)=O` gave UUG fidelity -9, esBAF inh -4, E-sel inducer 1, PglD DTNB 4, PGC1a acetyl inh -6 and Statin myotox sup 8.
For CCCC#Cc1ccc2c(c1)O[C@H](CN(C)C(C)=O)[C@H](C)CN([C@@H](C)CO)S2(=O)=O the results were UUG fidelity 5, esBAF inh -4, E-sel inducer 123*, PglD DTNB -3, PGC1a acetyl inh 2 and Statin myotox sup -7.
CC(C)CC#Cc1ccc2c(c1)O[C@H](CN(C)Cc1ccncc1)[C@H](C)CN([C@@H](C)CO)S2(=O)=O was read as UUG fidelity -7, esBAF inh -2, E-sel inducer 108*, PglD DTNB -4, PGC1a acetyl inh 7 and Statin myotox sup -52.
For C[C@@H]1CN([C@@H](C)CO)S(=O)(=O)c2ccc(/C=C/c3ccccc3)cc2O[C@@H]1CN(C)C(=O)NC1CCCC1 the results were UUG fidelity -11, esBAF inh 5, E-sel inducer -5, PglD DTNB 44, PGC1a acetyl inh -8 and Statin myotox sup 93*.
CCCC#Cc1ccc2c(c1)O[C@H](CN(C)S(=O)(=O)c1cccc(OC)c1)[C@@H](C)CN([C@H](C)CO)S2(=O)=O was read as esBAF inh 7, E-sel inducer 0, PGC1a acetyl inh -15 and Statin myotox sup -32.
For N#C[C@H]1[C@@H](c2ccccc2C2=CCCCC2)[C@H](CO)N1C(=O)C1CCOCC1 the results were E-sel inducer 0 and PGC1a acetyl inh 0.
Screening CC(=O)N(C)C[C@H]1Oc2cc(C#Cc3ccccn3)ccc2S(=O)(=O)N([C@@H](C)CO)C[C@@H]1C returned UUG fidelity 17, esBAF inh 3, E-sel inducer 0, PglD DTNB 1, PGC1a acetyl inh 1 and Statin myotox sup 10.
`COc1ccccc1C#Cc1ccc2c(c1)O[C@@H](CN(C)Cc1cccnc1)[C@H](C)CN([C@@H](C)CO)S2(=O)=O` gave esBAF inh 9, E-sel inducer 1, PglD DTNB -1, PGC1a acetyl inh 44* and Statin myotox sup -27.
For COc1ccccc1C#Cc1ccc2c(c1)O[C@@H](CN(C)Cc1cccnc1)[C@@H](C)CN([C@@H](C)CO)S2(=O)=O the results were esBAF inh 2, E-sel inducer 1, PglD DTNB 5, PGC1a acetyl inh -12 and Statin myotox sup 12.
CC(=O)N(C)C[C@@H]1Oc2cc(C#Cc3ccccn3)ccc2S(=O)(=O)N([C@H](C)CO)C[C@@H]1C was read as UUG fidelity 9, esBAF inh -1, E-sel inducer 70*, PglD DTNB 0, PGC1a acetyl inh 6 and Statin myotox sup 9.
COc1ccc(C2c3cc(OC)c(OC)cc3CC3C(=O)OCC32)cc1OC (stereo not drawn) was read as UUG fidelity 11, E-sel inducer 1, PglD DTNB 3, PGC1a acetyl inh 7 and Statin myotox sup 96*.
For Fc1ccccc1OCCCN1CCOCC1 the results were UUG fidelity 1, esBAF inh 6, PglD DTNB -4, PGC1a acetyl inh -1 and Statin myotox sup 169*.
Screening c1ccc(-c2ccccc2OCCCN2CCOCC2)cc1 returned E-sel inducer 2.

Reprinted at random: 3 compounds from above, in no set order.
Screening CC(=O)N(C)C[C@H]1Oc2cc(C#Cc3ccccn3)ccc2S(=O)(=O)N([C@@H](C)CO)C[C@@H]1C returned UUG fidelity 17, esBAF inh 3, E-sel inducer 0, PglD DTNB 1, PGC1a acetyl inh 1 and Statin myotox sup 10.
For CCCC#Cc1ccc2c(c1)O[C@H](CN(C)C(C)=O)[C@H](C)CN([C@@H](C)CO)S2(=O)=O the results were UUG fidelity 5, esBAF inh -4, E-sel inducer 123*, PglD DTNB -3, PGC1a acetyl inh 2 and Statin myotox sup -7.
For Fc1ccccc1OCCCN1CCOCC1 the results were UUG fidelity 1, esBAF inh 6, PglD DTNB -4, PGC1a acetyl inh -1 and Statin myotox sup 169*.

The listing continues.
`CC(C)Oc1ccc(C(=O)OCC(=O)c2ccc[nH]2)cc1` gave UUG fidelity -14, esBAF inh 65*, E-sel inducer inconclusive, PglD DTNB 7 and Statin myotox sup 35.
`Cc1ccsc1C(=O)OCC(=O)c1ccc[nH]1` gave UUG fidelity 6, esBAF inh 48*, PglD DTNB -2, PGC1a acetyl inh -2 and Statin myotox sup -4.
Screening Cc1ccsc1C(=O)N1CCc2ccccc2C1 returned UUG fidelity -7, esBAF inh 7, E-sel inducer -1, PglD DTNB -3 and Statin myotox sup 4.
Cc1ccsc1C(=O)OCC(=O)N1CCc2ccccc2C1 was read as UUG fidelity -19, esBAF inh 57*, E-sel inducer -1, PglD DTNB 0, PGC1a acetyl inh 0 and Statin myotox sup 21.
For Cc1ccc(C(=O)OCC(=O)c2ccc[nH]2)s1 the results were E-sel inducer 5.
Cc1ccsc1C(=O)OCC(=O)Nc1sccc1C(N)=O was read as esBAF inh 88*, PGC1a acetyl inh 6 and Statin myotox sup -13.
For COc1ccc2c3c(n(C)c2c1)[C@@H](CO)N(C(=O)CC1CC1)CC31CN(C(=O)C2CCC2)C1 the results were E-sel inducer 0.
CC(C)NC(=O)Nc1ccc2c(c1)C(=O)N([C@@H](C)CO)C[C@H](C)[C@H](CN(C)C(=O)CCC(F)(F)F)OCCCC[C@@H](C)O2 was read as E-sel inducer 0, PglD DTNB 0 and PGC1a acetyl inh 0.
Screening COc1ccc(C(=O)COC(=O)c2sccc2C)cc1OC returned UUG fidelity -5, esBAF inh 91*, E-sel inducer 0, PglD DTNB -2, PGC1a acetyl inh 6 and Statin myotox sup 2.
`COc1ccc(S(=O)(=O)N[C@H]2CC[C@@H](CC(=O)O)O[C@@H]2CO)cc1` gave UUG fidelity -13, esBAF inh -1, E-sel inducer 0, PglD DTNB 0, PGC1a acetyl inh -16 and Statin myotox sup 5.
`CC(C)(C)c1ccc(C(=O)N/C(N)=N/c2nc3ccccc3o2)cc1` gave UUG fidelity -9, esBAF inh 1, PglD DTNB 1, PGC1a acetyl inh 11 and Statin myotox sup 10.
For N/C(=N\c1nc2ccccc2o1)NC(=O)c1ccccc1Br the results were UUG fidelity 15, esBAF inh 80*, E-sel inducer 9, PglD DTNB -4, PGC1a acetyl inh 4 and Statin myotox sup 6.

Bioassay records deposited in PubChem BioAssay by Broad Institute.
